Results from PubChem BioAssay AID624291 (National Center for Advancing Translational Sciences (NCATS), 2012).
Only a part is listed here, and it is no random draw. Records with an inconclusive call do not appear. Activity calls are given as the source filed them. The call rests on the fitted dose curve; in most records, active means well fitted activation curve with a large enough effect; inconclusive means small, poorly fitted or top-dose-only effect; inactive means no such curve, though single readings can be large or run the other way.

Assay: qHTS for Activators of Integrin-Mediated Alleviation for Muscular Dystrophy;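 further: 100% = response of the positive control SU9516; nearly all actives have a fitted effect of over 60% in size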
Conditions: alpha7betagal myoblasts, beta-gal FDG fluorescence, 48 h; at 38.3 µM (top of the series)

SMILES	activation
CCCOc1ccc(NP(C)(=O)Oc2ccc(Cl)cc2)cc1 (configuration not stated)	inactive: -5.45%
CP(=O)(Nc1ccc(SC(F)(F)F)cc1)Oc1ccccc1 (configuration not stated)	inactive: 1.01%
CN1CCCCC1COC(=O)C1(O)c2ccccc2CCc2ccccc21 (configuration not stated)	inactive: 11%
COc1ccccc1OP(C)(=O)Nc1c(C)cccc1C (configuration not stated)	inactive: -10.2%
O=[N+]([O-])c1cc([N+](=O)[O-])c(Nc2nnnn2CCO)c([N+](=O)[O-])c1	inactive: 5.99%
Cc1nc2ccc3ccccc3c2s1.O=[N+]([O-])c1cc([N+](=O)[O-])c(O)c([N+](=O)[O-])c1	inactive: 16.4%
O=[N+]([O-])c1cc([N+](=O)[O-])c(-c2cnn(-c3ccccc3)c2)c([N+](=O)[O-])c1	inactive: 6.53%
O=[N+]([O-])c1cc([N+](=O)[O-])c(-n2nnc3ccccc32)c([N+](=O)[O-])c1	inactive: 5.4%
Cc1cc(C)cc(OP(C)(=O)Nc2ccccn2)c1 (configuration not stated)	inactive: -21.4%
CP(=O)(Nc1cccc(Br)c1)Oc1ccccc1 (configuration not stated)	inactive: 25.9%
Cc1ccc(C)c(NP(C)(=O)Oc2ccccc2)c1 (configuration not stated)	inactive: 26.4%
Cc1cc(C)cc(OP(C)(=O)Nc2ccc(C)cc2C)c1 (configuration not stated)	inactive: 13.3%
CCOC(=O)c1ccc(NP(C)(=O)Oc2cc(C)cc(C)c2)cc1 (configuration not stated)	inactive: 14.5%
COc1ccccc1OP(C)(=O)Nc1cccc(Br)c1 (configuration not stated)	inactive: -5.43%
CC1=NCCc2c1[nH]c1ccccc21.O=[N+]([O-])c1cc([N+](=O)[O-])c(O)c([N+](=O)[O-])c1	inactive: 12.3%
COc1ccc(OP(C)(=O)Nc2cccc(F)c2)cc1 (configuration not stated)	inactive: 22.4%
COc1ccccc1OP(C)(=O)Nc1cc(Cl)ccc1C (configuration not stated)	inactive: 4.13%
Cc1cc(C)cc(OP(C)(N)=O)c1 (configuration not stated)	inactive: -12.4%
CCOC(=O)c1ccc(NP(C)(=O)Oc2ccccc2)cc1 (configuration not stated)	inactive: 12%
Cc1ccc(NP(C)(=O)Oc2ccccc2)c(C)c1 (configuration not stated)	inactive: 24.5%
COc1ccccc1OP(C)(=O)Nc1ccc(C)cc1 (configuration not stated)	inactive: 7.75%

SMILES	activation
Cc1cccc(C)c1OP(C)(N)=O (configuration not stated)	inactive: 6.97%
CC(C)(C)c1ccc(OP(C)(=O)Nc2ccc(SC(F)(F)F)cc2)cc1 (configuration not stated)	inactive: -24.3%
O=[N+]([O-])c1ccc2c(c1)C=Nc1ccccc1O2	inactive: -49.2%
O=[N+]([O-])c1cc([N+](=O)[O-])c(Nc2cccnc2)c([N+](=O)[O-])c1	inactive: -12.6%
CCN(CC)CCCOC(=O)C(O)(c1ccccc1)c1ccccc1	inactive: -8.4%
CP(=O)(Nc1ccccn1)Oc1ccc(Cl)cc1 (configuration not stated)	inactive: -9.5%
CCOP(C)(=S)SCC(=O)NC(C)C(=O)O (configuration not stated)	inactive: -4.37%
O=[N+]([O-])c1cc([N+](=O)[O-])c(O)c([N+](=O)[O-])c1.c1ccc(Oc2ccncc2)cc1	inactive: 20.8%
CCOC(=O)c1ccc(NP(C)(=O)Oc2ccc(OC)cc2)cc1 (configuration not stated)	inactive: -14.7%
CP(=O)(NC(=O)Nc1ccccc1)Oc1ccccc1 (configuration not stated)	inactive: -2.4%
CCc1ccc(OP(C)(=O)N2CCN(c3ccc([N+](=O)[O-])cc3)CC2)cc1 (configuration not stated)	inactive: 5.54%
CP(=O)(Oc1ccccc1)OC(c1ccccc1)C(F)(F)F (configuration not stated)	inactive: -16%
CP(=O)(Nc1ccc(SC(F)(F)F)cc1)Oc1ccc(Cl)cc1 (configuration not stated)	inactive: 7.71%
Cc1cccc(C)c1OP(C)(=O)Nc1ccc(SC(F)(F)F)cc1 (configuration not stated)	inactive: 23.3%
COc1ccccc1OP(C)(=O)Nc1ccccc1 (configuration not stated)	inactive: -17%
CP(=O)(Nc1ccccc1Br)Oc1ccccc1 (configuration not stated)	inactive: -14.9%
CP(=S)(Nn1cnnc1)Oc1ccccc1 (configuration not stated)	inactive: 12.2%
CP(=O)(OC12CC3CC(CC(C3)C1)C2)OC12CC3CC(CC(C3)C1)C2	inactive: 0.13%
CCOC(=O)c1ccc(NP(C)(=O)Oc2ccc(Cl)cc2)cc1 (configuration not stated)	inactive: -10.4%
Nc1ccc2c(ccc3cccnc32)n1.O=[N+]([O-])c1cc([N+](=O)[O-])c(O)c([N+](=O)[O-])c1	inactive: 1.41%
CN(C)C(=O)c1c([N+](=O)[O-])cc([N+](=O)[O-])cc1[N+](=O)[O-]	inactive: -75.2%

SMILES	activation
CP(=O)(Nc1ccc(Cl)cc1)Oc1ccc(F)cc1 (configuration not stated)	inactive: 10.1%
COc1ccccc1OP(C)(=O)Nc1ccccc1Br (configuration not stated)	inactive: 2.79%
CC(C)(C)c1ccc(OP(C)(=O)O)cc1	inactive: 8.91%
CCc1ccc(OP(C)(=O)Nc2cccnc2)cc1 (configuration not stated)	inactive: 1.72%
CP(=O)(Oc1ccccc1)N1CCOC1=O (configuration not stated)	inactive: -6.05%
O=C(OCCCN1CCCC1)C(O)(c1ccccc1)C1CCCCC1 (configuration not stated)	inactive: -32.1%
COc1ccccc1OP(C)(=O)Nc1c(C)n(C)n(-c2ccccc2)c1=O (configuration not stated)	inactive: -0.898%
COc1ccc(OP(C)(=O)Nc2ccc(Br)cc2)cc1 (configuration not stated)	inactive: 2.76%
CCN(CC)CC(O)COC(=O)C(O)(c1ccccc1)C1CCCCC1 (configuration not stated)	inactive: 18.7%
CCc1ccc(OP(C)(=O)O)cc1	inactive: 11.7%
COc1ccccc1OP(C)(=O)Nc1ccc(C)cc1C (configuration not stated)	inactive: 2.73%
CP(=O)(Nc1ccccn1)Oc1ccccc1 (configuration not stated)	inactive: 6.51%
Cc1c(NP(C)(=O)Oc2ccc(C(C)C)cc2)c(=O)n(-c2ccccc2)n1C (configuration not stated)	inactive: -3.67%
O=[N+]([O-])c1cc([N+](=O)[O-])c(Nc2ccccn2)c([N+](=O)[O-])c1	inactive: -63.7%
CN(C)CCOC(=O)C(O)(c1ccccc1)C1CCCC1 (configuration not stated)	inactive: -4.74%
COc1ccc(OP(C)(=O)Nc2ccccn2)cc1 (configuration not stated)	inactive: 4.83%
COc1ccccc1OP(C)(=O)Nc1ccc(Br)cc1 (configuration not stated)	inactive: 14.3%
CP(=O)(Nc1ccc(Cl)cc1Cl)Oc1ccccc1 (configuration not stated)	inactive: 2.36%
CCCCCCCCCCCCCCCC1C[N+](C)(C)CCOP(C)(=O)O1 (configuration not stated)	inactive: 18.3%
CP(=O)(OCCOc1ccccc1)OCCOc1ccccc1	inactive: -12.6%
COc1ccc(OP(C)(=O)Nc2ccccc2Br)cc1 (configuration not stated)	inactive: -3.52%

SMILES	activation
COc1ccccc1OP(C)(=O)Nc1ccc(C)c(C)c1 (configuration not stated)	inactive: 14.4%
Cc1cc(C)cc(OP(C)(=O)Nc2cccc(C(F)(F)F)c2)c1 (configuration not stated)	inactive: 16.4%
CCCCCOc1ccc(NP(C)(=O)Oc2ccc(Cl)cc2Cl)cc1 (configuration not stated)	inactive: -25.4%
CP(=O)(Nc1ccccc1)Oc1ccc(F)cc1 (configuration not stated)	inactive: 13.7%
CCN(CC)CCCOC(=O)C(O)(c1ccccc1)C1CCCCC1 (configuration not stated)	inactive: -20.8%
Cc1c([N+](=O)[O-])cc([N+](=O)[O-])c(Br)c1[N+](=O)[O-]	inactive: 5.68%
COc1ccc(OP(C)(=O)Nc2ccc(SC(F)(F)F)cc2)cc1 (configuration not stated)	inactive: -5.19%
CCOC(=O)c1ccc(NP(C)(=O)Oc2ccc(F)cc2)cc1 (configuration not stated)	inactive: 10.5%
O=C(OCCN1CCN(CCOCc2ccccc2)CC1)C(O)(c1ccccc1)c1ccccc1	inactive: -10.8%
CC(C)c1ccc(OP(C)(=O)Nc2ccc(SC(F)(F)F)cc2)cc1 (configuration not stated)	inactive: -2.91%
Cc1ccccc1NP(C)(=O)Nc1ccccc1C	inactive: 8.24%
CP(=O)(Nc1ccc2c(c1)OCCO2)Oc1ccccc1 (configuration not stated)	inactive: 7.66%
CCOP(C)(=S)SCC(=O)NC(C)(CC)C(=O)O (configuration not stated)	inactive: 7.8%
CP(=O)(Nc1ccc(SC(F)(F)F)cc1)Oc1ccc(F)cc1 (configuration not stated)	inactive: -16%
Cc1c(C(c2ccc3c(c2)OCO3)c2c(C)n(C)n(-c3ccccc3)c2=O)c(=O)n(-c2ccccc2)n1C.O=[N+]([O-])c1cc([N+](=O)[O-])c(O)c([N+](=O)[O-])c1	inactive: 2.56%
Cc1cc(-c2cccc3ccccc23)c(C)cn1.O=[N+]([O-])c1cc([N+](=O)[O-])c(O)c([N+](=O)[O-])c1	inactive: -15.2%
COc1ccc(NP(C)(=O)Oc2ccccc2OC)cc1 (configuration not stated)	inactive: 12.1%
CN(C)CCOC(=O)C(O)(c1ccccc1)C1CCCCC1 (configuration not stated)	inactive: 0.251%
COc1ccc(OP(C)(=O)Nc2cccc(Br)c2)cc1 (configuration not stated)	inactive: -11.2%
